Test results taken from ChEMBL document CHEMBL1811886 (J Med Chem, 2011).

Sequences of proteins named here, by UniProt entry; tags and fusion partners are left off. A change or cut given only in a name is not applied to a line headed by its entry.
UniProt Q9QYN8: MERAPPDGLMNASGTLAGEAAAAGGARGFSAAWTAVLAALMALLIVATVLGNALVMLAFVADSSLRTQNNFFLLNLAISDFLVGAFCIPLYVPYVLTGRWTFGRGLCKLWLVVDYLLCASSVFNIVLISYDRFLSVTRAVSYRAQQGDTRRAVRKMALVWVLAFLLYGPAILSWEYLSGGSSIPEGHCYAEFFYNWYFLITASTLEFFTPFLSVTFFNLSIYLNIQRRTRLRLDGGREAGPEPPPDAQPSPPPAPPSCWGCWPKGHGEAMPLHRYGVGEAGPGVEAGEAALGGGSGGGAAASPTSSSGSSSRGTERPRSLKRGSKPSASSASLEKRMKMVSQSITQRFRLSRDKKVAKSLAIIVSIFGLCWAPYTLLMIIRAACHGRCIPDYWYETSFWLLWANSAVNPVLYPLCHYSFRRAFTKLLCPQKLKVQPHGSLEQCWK

Biological target: Histamine H3 receptor (Rattus norvegicus, UniProt Q9QYN8)
Test: Displacement of [3H]NAMH from rat histamine H3 receptor expressed in CHO cells
Assay type: cell-based

## C[C@@H]1CCCN1CCc1cc2cc(-c3ccc(C#N)cc3)ccc2o1
  Ki: 31 nM
